Earlier results in PMC10451079.
pKd: −log10 of the molar value.

Target: megalin (Homo sapiens) (UniProt P98164)

pKd: 5.74
Substance: RBP (from UniProt P02753)
